From patent US10513524B2, “PDE9 inhibitors with imidazo triazinone backbone and imidazo pyrazinone backbone for treatment of peripheral diseases” (H. LUNDBECK A/S, priority 2015, dated 2019)

Settings: male CD mice, subcutaneous 10 mg/kg

Brain concentration after 30 minutes (30 min): 500 ng/mL | Brain/Plasma ratio after 30 minutes (30 min): 0.41 0.41 | Brain concentration after 120 minutes (120 min): 215 ng/mL | Brain/Plasma ratio after 120 minutes (120 min): 0.41 0.41
Compound: C[C@@H]1CN(Cc2ncccn2)C[C@H]1c1nc2c(cnn2C2CCOCC2)c(=O)[nH]1 (single isomer, unassigned) [Reference compound, reference compound]
